Laboratory results taken from article PMC5981617, “Targeted Delivery of Cell Penetrating Peptide Virus-like Nanoparticles to Skin Cancer Cells” (Scientific Reports, 2018).

System: A431 cells
Experiment: Inhibition of peptide internalisation using anti-EGFr Cetuximab
Assay type: cell-based, human
Details: Cetuximab 10 µg/mL, 30 min pre-incubation, then FITC-NRPDSAQFWLHH 0.25 mM, 16 h, 37 °C
Protocol: A431 cells (200,000 cells/well) were seeded onto sterile glass coverslips in a six-well plate and incubated overnight at 37 °C. The medium was then removed and the cells were pre-incubated with 10 µg/mL anti-EGFR (Cetuximab clone C225; Merck, Billerica, Massachusetts, USA) for 30 min. After the pre-incubation, FITC-NRPDSAQFWLHH (0.25 mM) was added to the cells and incubated for 16 h at 37 °C in the presence of anti-EGFR (10 µg/mL). After removing the medium, the cells were washed, fixed, stained with Hoechst 33342, and viewed under a fluorescence microscope.

Cetuximab: anti-EGFr antibody, clone C225
Effect of anti-EGFr antibody on internalisation of the peptide into A431 cells: greatly reduced
